What was measured:
[1] = molecular target: IL-23 induced IFNγ in natural killer (NK) cells (Homo sapiens, UniProt Q5VWK5); assay: NK cell based assay (IL-23/IL-18 induced IFNγ); settings: IL-23 at EC50 to EC75 and IL-18 10 ng/mL, IFNγ in supernatant after 20 to 24 hours
Description: Example 3: NK Cell Based Assay

Amino acid sequences for entries named in this document (tags omitted). Residues count along the entry.
UniProt Q5VWK5, 24-629 limits assumed: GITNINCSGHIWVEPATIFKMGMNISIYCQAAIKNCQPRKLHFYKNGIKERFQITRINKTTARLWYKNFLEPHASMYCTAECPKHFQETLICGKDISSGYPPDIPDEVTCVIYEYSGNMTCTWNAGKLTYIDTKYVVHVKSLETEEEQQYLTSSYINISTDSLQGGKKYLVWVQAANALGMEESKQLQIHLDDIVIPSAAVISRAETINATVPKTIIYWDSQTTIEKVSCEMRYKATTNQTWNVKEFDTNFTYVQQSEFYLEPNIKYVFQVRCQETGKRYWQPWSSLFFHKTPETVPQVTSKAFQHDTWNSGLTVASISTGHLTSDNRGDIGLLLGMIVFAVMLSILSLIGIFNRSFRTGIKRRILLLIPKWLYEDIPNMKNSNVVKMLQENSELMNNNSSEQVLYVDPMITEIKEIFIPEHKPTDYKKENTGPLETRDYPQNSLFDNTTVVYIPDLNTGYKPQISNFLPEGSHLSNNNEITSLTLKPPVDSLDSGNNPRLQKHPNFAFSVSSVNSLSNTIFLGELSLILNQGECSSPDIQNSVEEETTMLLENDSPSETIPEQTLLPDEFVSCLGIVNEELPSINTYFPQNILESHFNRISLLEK

[2] = Stability in simulated intestinal fluid (SIF); type: in vitro ADME; settings: 100 fold dilution of standard SIF concentration, 37° C., 20 μM
Procedure: Studies were carried out in simulated intestinal fluid (SIF) and simulated gastric fluid (SGF) to evaluate gastric stability of the peptide inhibitors of the present invention. In addition, studies were carried out to assess redox stability of the peptide inhibitors of the present invention.
SIF was prepared by adding 6.8 g of monobasic potassium phosphate and 10.0 g of pancreatin to 1.0 L of water. After dissolution, the pH was adjusted to 6.8 using NaOH. DMSO stocks (2 mM) were first prepared for the test compounds. Aliquots of the DMSO solutions were dosed into 6 individual tubes, each containing 0.5 mL of SIF, which is pre-warmed to 37° C. The final test compound concentration was 20 μM. The vials were kept in a benchtop Thermomixer® for the duration of the experiment. At each timepoint (0, 5, 10, 20, 40, 60, or 360 minutes or 24 hours), 1.0 mL of acetonitrile containing 1% formic acid was added to one vial to terminate the reaction. Samples were stored at 4° C. until the end of the experiment. After the final timepoint is sampled, the tubes were mixed and then centrifuged at 3,000 rpm for 10 minutes. Aliquots of the supernatant were removed, diluted 1:1 into distilled water containing internal standard, and analyzed by LCMS/MS. Percent remaining at each timepoint was calculated based on the peak area response ratio of test to compound to internal standard. Time 0 was set to 100%, and all later timepoints were calculated relative to time 0. Half-lives were calculated by fitting to a first-order exponential decay equation using Graphpad.

[3] = Stability in human fecal homogenate; type: in vitro ADME; settings: 20% human fecal homogenate, 37° C., 20 μM
Procedure: (§1) Studies were carried out in human or cynomlogus monkey fecal homogenate to evaluate gastrointestinal stability of the peptide inhibitors of the present invention.
(§2) Fecal homogenate (20%) was prepared by adding 4 mL of growth medium (1 liter contains 2 g peptone water powder, 2 g yeast extract, 0.1 g NaCl, 0.04 g KH2PO4, 0.01 g CaCl2·6H2O, 0.01 g MgSO4.7H2O, 2 mL Tween 80, 0.5 g bile salts, 0.5 g L-cysteine HCl, 2 g NaHCO3, and 10 μL Vitamin K, pH adjusted to 6.8, and sterilized by filtration through a 0.22 μm filter) to every gram of feces (pooled freshly collected human or cynomolgus monkey feces). The suspension was vortexed to break up large clumps, and homogenized using a bead mill homogenizer. Centrifuged the homogenate at 2800×g for 15 min. The supernatant is taken out and used for incubations. DMSO stocks (10 mM) were first prepared for the test compounds. Incubations were performed in an anaerobic chamber conditioned at 37° C. Aliquots of the DMSO solutions were dosed into 1.0 mL aliquots of 20% fecal homogenate, which are pre-warmed to 37° C. The final test compound concentration was 20 μM. At each timepoint (0, 20 min, 1, 3, 6, or 24 hours), 100 μL aliquot of each incubation mixture is taken out and added to separate tubes containing 300 μL of 50% acetonitrile/50% methanol and an internal standard to terminate the reaction. Samples were taken out of the anaerobic chamber and stored at 4° C. until the end of the experiment. After the final timepoint is sampled, the tubes were mixed and then centrifuged at 3,000 rpm for 10 minutes. Aliquots of the supernatant were removed, diluted 1:1 into distilled water containing 0.1% formic acid, and analyzed by LC/MS/MS. Percent remaining at each timepoint was calculated based on the peak area response ratio of test to compound to internal standard. Time 0 was set to 100%, and all later timepoints were calculated relative to time 0. Half-lives were calculated by fitting to a first-order exponential decay equation using Graphpad or Excel.

[4] = Stability in cynomolgus monkey fecal homogenate; type: in vitro ADME; settings: 20% cynomolgus monkey fecal homogenate, 37° C., 20 μM
Procedure: as §1, §2

Stability in rat plasma = type: in vitro ADME; settings: SD rat plasma, 37° C., 20 μM
Procedure: Example 6: Stability of Peptide Inhibitors in Rat Plasma
Peptides of interest (20 μM) were incubated with pre-warmed rat plasma (SD rat, mixed gender pooled, EDTA, filtered through 0.22 μm, BioreclamationIVT) at 37° C. Aliquots were taken at various time points up to 24 hours (e.g. 0, 0.25, 1, 3, 6 and 24 hr), and immediately quenched with 4 volumes of organic solvent (acetonitrile/methanol (1:1) and 0.1% formic acid, containing 1 μM internal standard). Quenched samples were stored at 4° C. until the end of the experiment and centrifuged at 4,000 rpm for 10 minutes. The supernatant were diluted 1:1 with deionized water and analyzed using LC-MS. Percentage remaining at each time point was calculated based on the peak area ratio (analyte over internal standard) relative to the initial level at time zero. Half-lives were calculated by fitting to a first-order exponential decay equation using GraphPad.

Substance	IC50 [1]	SIF t½ [2]	t½: Human Feces anaerobic [3]	t½: Monkey Feces anaerobic [4]	t½: Rat Plasma EDTA (Stability in rat plasma)
Ac-[Pen]-N-T-[W(7-(2-FPh)]- [Lys(Ac)]-[Pen]-Phe[4-(2-aminoethoxy)]-[2-Nal]-[a-MeLys]-[Lys(Ac)]-N-H-[Sarc]-NH2 [Peptide 46]	1.39 nM	>24.0 h	>24.0 h	>24.0 h	>24.0 h
Ac-[Pen]-N-T-[W(7-(3,5-t-Bu-Ph))]-[Lys(Ac)]-[Pen]-Phe[4-(2-aminoethoxy)]-[2-Nal]-[THP]-E-N-H-[Sarc]-NH2 [Peptide 73]	8.1 nM	>24.0 h	>24.0 h	23.2 h	>24.0 h
Ac-[Pen]-N-T-[W(7-(4BiPh))]-[Lys(Ac)]-[Pen]-Phe[4-(2-aminoethoxy)]-[2-Nal]-[THP]-E-N-H-[Sarc]-NH2 [Peptide 72]	1.81 nM	>24.0 h	>24.0 h	>24.0 h	>24.0 h
Ac-[Pen]-N-T-[W(7-(Phenanthren-5-yl))]-[Lys(Ac)]-[Pen]-Phe[4-(2-aminoethoxy)]-[2-Nal]-[THP]-E-N-H-[Sarc]-NH2 [Peptide 69]	9.99 nM	>24.0 h	>24.0 h	>24.0 h	>24.0 h
Ac-[Pen]-N-T-[W(7-Me)]-[Lys(Ac)]-[Pen]-Phe[4-(2-aminoethoxy)]-[2-Nal]-[THP]-E-G-H-[Sarc]-NH2 [Peptide 64]	1.42 nM	>24.0 h	13.3 h	14 h	>24.0 h
Ac-[Pen]-N-T-[W(7-Me)]-[Lys(Ac)]-[Pen]-Phe[4-(2-aminoethoxy)]-[2-Nal]-[THP]-E-[(D)Asn]-H-[Sarc]-NH2 [Peptide 63]	28.1 nM	>24.0 h	>24.0 h	>24.0 h	>24.0 h
Ac-[Pen]-N-T-[W(7-Me)]-[Lys(Ac)]-[Pen]-Phe[4-(2-aminoethoxy)]-[2-Nal]-[THP]-E-[h(Ser)]-H-[Sarc]-NH2 [Peptide 65]	1.8 nM	>24.0 h	14.7 h	12.5 h	>24.0 h
Ac-[Pen]-N-T-[W(7-Me)]-[Lys(Ac)]-[Pen]-Phe[4-(2-aminoethoxy)]-[2-Nal]-[a-MeLys]-[Lys(Ac)]-N-[(D)Leu]-[Sarc]-NH2 [Peptide 20]	2.88 nM	>24.0 h	>24.0 h	>24.0 h	20.6 h
Ac-[Pen]-N-T-[W(7-Me)]-[Lys(Ac)]-[Pen]-Phe[4-(2-aminoethoxy)]-[2-Nal]-[a-MeLys]-[Lys(Ac)]-N-[(D)Lys]-[Sarc]-NH2 [Peptide 21]	2.04 nM	>24.0 h	>24.0 h	22.7 h	>24.0 h
Ac-[Pen]-N-T-[W(7-Me)]-[Lys(Ac)]-[Pen]-Phe[4-(2-aminoethoxy)]-[3-Quin]-[THP]-E-N-[(D)Lys]-[Sarc]-NH2 [Peptide 3]	2.05 nM	>24.0 h	>24.0 h	>24.0 h	10.9 h
Ac-[Pen]-N-T-[W(7-Me)]-[Lys(Ac)]-[Pen]-Phe[4-(2-aminoethoxy)]-[3-Quin]-[a-MeLys]-[Lys(Ac)]-N-[(D)His]-[Sarc]-NH2 [Peptide 4]	5.81 nM	>24.0 h	>24.0 h	>24.0 h	>24.0 h
Ac-[Pen]-N-T-[W(7-Me)]-[Lys(Ac)]-[Pen]-Phe[4-(2-aminoethoxy)]-[3-Quin]-[a-MeLys]-[Lys(Ac)]-N-[(D)Leu)]-[Sarc]-NH2 [Peptide 2]	2.11 nM	>24.0 h	>24.0 h	>24.0 h	>24.0 h
Ac-[Pen]-N-T-[W(7-Me)]-[Lys(Ac)]-[Pen]-Phe[4-(2-aminoethoxy)]-[3-Quin]-[a-MeLys]-[Lys(Ac)]-N-[(D)Lys]-[Sarc]-NH2 [Peptide 7]	2.62 nM	>24.0 h	>24.0 h	>24.0 h	>24.0 h
Ac-[Pen]-N-T-[W(7-Me)]-[Lys(Ac)]-[Pen]-Phe[4-(2-aminoethoxy)]-[W(6-C1)]-[a-MeLys]-[Lys(Ac)]-N-H-[Sarc]-NH2 [Peptide 41]	1.51 nM	>24.0 h	21.5 h	15.4 h	>24.0 h
Ac-[Pen]-N-T-[W(7-Me)]-[Lys(Ac)]-[Pen]-Phe[4-(2-aminoethoxy)]-[W(7-nPr)]-[a-MeLys]-[Lys(Ac)]-N-H-[Sarc]-NH2 [Peptide 39]	34.1 nM	>24.0 h	23.4 h	24 h	>24.0 h
Ac-[Pen]-N-T-[W(7-Me)]-[Lys(Ac)]-[Pen]-[Phe(4-CONH2)]-[2-Nal]-[THP]-E-N-H-[Sarc]-NH2 [Peptide 74]	1.82 nM	14.6 h	6.1 h	17.5 h	>24.0 h
Ac-[Pen]-N-T-[W(7-Me)]-[Lys(Ac)]-[Pen]-[Phe(4-OMe)]-[2-Nal]-[THP]-E-N-H-[Sarc]-NH2 [Peptide 75]	1.84 nM	15.4 h	7.2 h	17 h	16.1 h
Ac-[Pen]-N-T-[W(7-Ph)]-[Lys(Ac)]-[Pen]-Phe[4-(2-aminoethoxy)]-[2-Nal]-[THP]-E-N-H-[(D)NMeTyr]-NH2 [Peptide 62]	2.1 nM	>24.0 h	>24.0 h	>24.0 h	>24.0 h
Ac-[Pen]-N-T-[W(7-Ph)]-[Lys(Ac)]-[Pen]-Phe[4-(2-aminoethoxy)]-[3Quin]-[THP]-E-N-[(D)Leu]-[Sarc]-NH2 [Peptide 13]	2.37 nM	>24.0 h	>24.0 h	>24.0 h	7.6 h
